# CycPeptMPDB entries from one study

Data: CycPeptMPDB; original report Kelly et al. 2021, doi:10.1021/jacs.0c06115.

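The data file gives no further conditions (lipid, pH, time, direction or concentration), and values from different papers need not be comparable. The list need not hold all peptides of the study. Peptides that the database sets to -10, its floor, are left out.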

PAMPA is the parallel artificial membrane permeability assay, which has no cells and reads passive diffusion. MDCK values are permeabilities across Madin-Darby canine kidney cell monolayers. P is given in units of 10^-6 cm/s (from log10 values with two decimals); larger means faster passage.

For CC(=O)N1CCC[C@H]1C(=O)N(C)[C@H](CC(C)C)C(=O)N[C@@H]1C(=O)N[C@@H](CC(C)C)C(=O)N[C@H](CC(C)C)C(=O)N[C@H](CC(C)C)C(=O)N[C@@H](C)C(=O)N[C@H](CC(C)C)C(=O)N2CCC[C@@H]2C(=O)O[C@@H]1C the data give PAMPA 0.14 × 10^-6 cm/s. CC(=O)N1CCC[C@@H]1C(=O)N(C)[C@H](CC(C)C)C(=O)N[C@@H]1C(=O)N[C@H](CC(C)C)C(=O)N[C@H](CC(C)C)C(=O)N[C@@H](CC(C)C)C(=O)N(C)[C@H](C)C(=O)N[C@H](CC(C)C)C(=O)N2CCC[C@H]2C(=O)O[C@@H]1C is reported with PAMPA 1 × 10^-6 cm/s. For CC(=O)N1CCC[C@H]1C(=O)N(C)[C@@H](CC(C)C)C(=O)N[C@@H]1C(=O)N(C)[C@@H](CC(C)C)C(=O)N(C)[C@H](CC(C)C)C(=O)N(C)[C@H](CC(C)C)C(=O)N(C)[C@@H](C)C(=O)N[C@H](CC(C)C)C(=O)N2CCC[C@@H]2C(=O)O[C@@H]1C the data give PAMPA 1.4 × 10^-6 cm/s. CC(=O)N1CCC[C@@H]1C(=O)N(C)[C@@H](CC(C)C)C(=O)N[C@@H]1C(=O)N[C@@H](CC(C)C)C(=O)N(C)[C@@H](CC(C)C)C(=O)N(C)[C@@H](CC(C)C)C(=O)N(C)[C@H](C)C(=O)N[C@@H](CC(C)C)C(=O)N2CCC[C@H]2C(=O)O[C@@H]1C is reported with PAMPA 1.9 × 10^-6 cm/s.

The entry for CC(=O)N1CCC[C@@H]1C(=O)N(C)[C@H](CC(C)C)C(=O)N[C@@H]1C(=O)N[C@H](CC(C)C)C(=O)N[C@H](CC(C)C)C(=O)N[C@@H](CC(C)C)C(=O)N[C@@H](C)C(=O)N[C@@H](CC(C)C)C(=O)N2CCC[C@@H]2C(=O)O[C@@H]1C lists PAMPA 0.015 × 10^-6 cm/s and MDCK 0.4 × 10^-6 cm/s. For CC(=O)N1CCC[C@@H]1C(=O)N(C)[C@H](CC(C)C)C(=O)N[C@@H]1C(=O)N(C)[C@@H](CC(C)C)C(=O)N(C)[C@H](CC(C)C)C(=O)N(C)[C@@H](CC(C)C)C(=O)N(C)[C@@H](C)C(=O)N[C@H](CC(C)C)C(=O)N2CCC[C@H]2C(=O)O[C@@H]1C the data give PAMPA 6.5 × 10^-6 cm/s. For CC(=O)N1CCC[C@@H]1C(=O)N(C)[C@@H](CC(C)C)C(=O)N[C@@H]1C(=O)N(C)[C@@H](CC(C)C)C(=O)N(C)[C@H](CC(C)C)C(=O)N(C)[C@H](CC(C)C)C(=O)N(C)[C@@H](C)C(=O)N[C@@H](CC(C)C)C(=O)N2CCC[C@H]2C(=O)O[C@@H]1C the data give PAMPA 2.8 × 10^-6 cm/s. CC(=O)N1CCC[C@H]1C(=O)N(C)[C@H](CC(C)C)C(=O)N[C@@H]1C(=O)N[C@@H](CC(C)C)C(=O)N(C)[C@@H](CC(C)C)C(=O)N(C)[C@H](CC(C)C)C(=O)N[C@H](C)C(=O)N[C@@H](CC(C)C)C(=O)N2CCC[C@@H]2C(=O)O[C@@H]1C is reported with PAMPA 3.2 × 10^-6 cm/s.

The entry for CC(=O)N1CCC[C@H]1C(=O)N(C)[C@H](CC(C)C)C(=O)N[C@@H]1C(=O)N(C)[C@H](CC(C)C)C(=O)N[C@H](CC(C)C)C(=O)N(C)[C@@H](CC(C)C)C(=O)N(C)[C@@H](C)C(=O)N[C@H](CC(C)C)C(=O)N2CCC[C@H]2C(=O)O[C@@H]1C lists PAMPA 2.5 × 10^-6 cm/s. Listed for CC(=O)N1CCC[C@@H]1C(=O)N(C)[C@@H](CC(C)C)C(=O)N[C@@H]1C(=O)N(C)[C@H](CC(C)C)C(=O)N(C)[C@@H](CC(C)C)C(=O)N(C)[C@H](CC(C)C)C(=O)N(C)[C@H](C)C(=O)N[C@@H](CC(C)C)C(=O)N2CCC[C@@H]2C(=O)O[C@@H]1C: PAMPA 8.9 × 10^-6 cm/s. For CC(=O)N1CCC[C@@H]1C(=O)N(C)[C@@H](CC(C)C)C(=O)N[C@@H]1C(=O)N[C@@H](CC(C)C)C(=O)N[C@@H](CC(C)C)C(=O)N(C)[C@@H](CC(C)C)C(=O)N[C@@H](C)C(=O)N[C@@H](CC(C)C)C(=O)N2CCC[C@H]2C(=O)O[C@@H]1C the data give PAMPA 0.81 × 10^-6 cm/s. CC(=O)N1CCC[C@H]1C(=O)N[C@@H]1C(=O)N[C@H](CC(C)C)C(=O)N[C@@H](CC(C)C)C(=O)N(C)[C@H](CC(C)C)C(=O)N(C)[C@H](CC(C)C)C(=O)N(C)[C@H](C)C(=O)N[C@@H](CC(C)C)C(=O)N2CCC[C@@H]2C(=O)O[C@@H]1C is reported with PAMPA 2.3 × 10^-6 cm/s.

CC(=O)N1CCC[C@H]1C(=O)N[C@@H]1C(=O)N[C@H](CC(C)C)C(=O)N[C@@H](CC(C)C)C(=O)N[C@@H](CC(C)C)C(=O)N[C@H](CC(C)C)C(=O)N(C)[C@@H](C)C(=O)N[C@@H](CC(C)C)C(=O)N2CCC[C@@H]2C(=O)O[C@@H]1C is reported with PAMPA 13 × 10^-6 cm/s. The entry for CC(=O)N1CCC[C@H]1C(=O)N[C@@H]1C(=O)N[C@H](CC(C)C)C(=O)N[C@H](CC(C)C)C(=O)N[C@H](CC(C)C)C(=O)N[C@@H](CC(C)C)C(=O)N(C)[C@H](C)C(=O)N[C@@H](CC(C)C)C(=O)N2CCC[C@@H]2C(=O)O[C@@H]1C lists PAMPA 0.6 × 10^-6 cm/s. CC(=O)N1CCC[C@@H]1C(=O)N(C)[C@@H](CC(C)C)C(=O)N[C@@H]1C(=O)N[C@@H](CC(C)C)C(=O)N[C@H](CC(C)C)C(=O)N[C@H](CC(C)C)C(=O)N[C@@H](C)C(=O)N[C@@H](CC(C)C)C(=O)N2CCC[C@H]2C(=O)O[C@@H]1C is reported with PAMPA 0.095 × 10^-6 cm/s. The entry for CC(=O)N1CCC[C@@H]1C(=O)N(C)[C@H](CC(C)C)C(=O)N[C@@H]1C(=O)N(C)[C@@H](CC(C)C)C(=O)N[C@@H](CC(C)C)C(=O)N[C@H](CC(C)C)C(=O)N[C@@H](C)C(=O)N[C@H](CC(C)C)C(=O)N2CCC[C@H]2C(=O)O[C@@H]1C lists PAMPA 0.16 × 10^-6 cm/s.

CC(=O)N1CCC[C@@H]1C(=O)N(C)[C@H](CC(C)C)C(=O)N[C@@H]1C(=O)N[C@@H](CC(C)C)C(=O)N[C@H](CC(C)C)C(=O)N[C@H](CC(C)C)C(=O)N(C)[C@H](C)C(=O)N[C@H](CC(C)C)C(=O)N2CCC[C@H]2C(=O)O[C@@H]1C has PAMPA 0.066 × 10^-6 cm/s.

The last 2 entries again:

Listed for CC(=O)N1CCC[C@@H]1C(=O)N(C)[C@H](CC(C)C)C(=O)N[C@@H]1C(=O)N(C)[C@@H](CC(C)C)C(=O)N[C@@H](CC(C)C)C(=O)N[C@H](CC(C)C)C(=O)N[C@@H](C)C(=O)N[C@H](CC(C)C)C(=O)N2CCC[C@H]2C(=O)O[C@@H]1C: PAMPA 0.16 × 10^-6 cm/s.
Listed for CC(=O)N1CCC[C@@H]1C(=O)N(C)[C@H](CC(C)C)C(=O)N[C@@H]1C(=O)N[C@@H](CC(C)C)C(=O)N[C@H](CC(C)C)C(=O)N[C@H](CC(C)C)C(=O)N(C)[C@H](C)C(=O)N[C@H](CC(C)C)C(=O)N2CCC[C@H]2C(=O)O[C@@H]1C: PAMPA 0.066 × 10^-6 cm/s.